Literature values, collected in publication PMC9945863 (2023).

Conditions: heterocyclic nitrogen basicity; cited from earlier work

In the case of c1c[nH]cn1 [imidazole], the pKa is given as 14.5.
